Source: US20040058943A1, “Medicinal composition for treatment of chronic cardiac failure” (priority 2001, published 2004)

The chains behind the UniProt entries cited, without tags or fusion partners. Residues count along the entry.
UniProt P25101, 21-427: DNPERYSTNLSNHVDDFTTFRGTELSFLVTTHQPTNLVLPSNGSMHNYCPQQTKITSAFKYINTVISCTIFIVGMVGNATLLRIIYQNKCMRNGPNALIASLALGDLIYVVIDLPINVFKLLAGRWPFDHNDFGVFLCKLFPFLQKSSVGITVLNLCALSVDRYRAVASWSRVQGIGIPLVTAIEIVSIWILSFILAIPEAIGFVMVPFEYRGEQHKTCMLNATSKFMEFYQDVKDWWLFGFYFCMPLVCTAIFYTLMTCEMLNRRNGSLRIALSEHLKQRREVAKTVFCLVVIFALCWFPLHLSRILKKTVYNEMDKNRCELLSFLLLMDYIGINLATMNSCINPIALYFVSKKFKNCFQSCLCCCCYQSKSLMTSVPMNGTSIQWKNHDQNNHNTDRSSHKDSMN

How the values were obtained:
[1] = system: model rats of heart failure after myocardial infarction caused by coronary ligation; details: rat, in vivo
[2] = system: model rats of heart failure after myocardial infarction caused by coronary ligation; details: in 24 weeks after start of administration; oral once a day, 1 mg/kg·day; control group 47.6%; p=0.013
[3] = system: rats of heart failure after cardiac infarction prepared by coronary ligation; details: in 30 weeks after start of administration; oral once a day, 1 mg/kg·day; control group 81.8%; p=0.0465
[4] = system: rats of heart failure after cardiac infarction prepared by coronary ligation; details: rat, in vivo, po, 1 mg/kg
[5] = system: rats of heart failure after cardiac infarction prepared by coronary ligation; details: about 30 weeks oral once a day, 1 mg/kg·day; p < 0.01 vs control group
[6] = system: rats of heart failure after cardiac infarction prepared by coronary ligation; details: rat, in vivo, po, 1 mg/kg; remark: listed apart in the source
endothelin ETA receptor = endothelin ETA receptor (Homo sapiens, UniProt P25101); details: cited from earlier work
[7] = system: ET-1 induced vasocontriction and hypertension; details: cited from earlier work

Row | Compound | Running Time [1] [min] | mortality [2] [%] | mortality [3] [%] | load to the right ventricle (RVSP, CVP) [4] | Ratio of Left Ventricle Weight to Body Weight (LV + SEP)/BW [5] | Ratio of Right Ventricle Weight to Body Weight RV/BW [5] | Ratio of Wet Lung to Body Weight Lungs/BW [5] | expansion of the left ventricular cavity [6] | hypertrophy and myocardial fibrosis in non-infarcted region [6] | inhibiting ET-1 binding to endothelin ETA receptor (endothelin ETA receptor) | preventing ET-1 induced vasocontriction and hypertension [7]
1 | COc1ccccc1Oc1c(NS(=O)(=O)C=Cc2ccccc2)nc(-c2ncccn2)nc1OC.[K] [Compound 1, N-[6-methoxy-5-(2-methoxyphenoxy)-2-(2-pyrimidinyl)-4-pyrimidinyl]-2-phenylethenesulfonamide potassium salt] | 37.81 ± 3.6 | 0.7 | 55.0 | relieved | 1.85 ± 0.08 | 0.57 ± 0.05 | 3.12 ± 0.09 | inhibited the expansion of the left ventricular cavity | remarkably prevented the heart failure rats from having hypertrophy and myocardial fibrosis | – | –
2 | COc1ccccc1Oc1c(NS(=O)(=O)C=Cc2ccccc2)nc(-c2ncccn2)nc1OC [N-[6-methoxy-5-(2-methoxyphenoxy)-2-(2-pyrimidinyl)-4-pyrimidinyl]-2-phenylethenesulfonamide] | – | – | – | – | – | – | – | – | – | effective | effective
